Measured values as given in PubChem BioAssay AID651636 (Sanford-Burnham Center for Chemical Genomics, 2012).
Only a part is listed here, and it is no random draw. Active and inactive are the calls of the source. No stated cut-off is given here; in the data, active means inhibition above about 38%; inactive means the rest.

By UniProt entry, the sequences of proteins in these tests, tags left out.
UniProt P32249, whole entry: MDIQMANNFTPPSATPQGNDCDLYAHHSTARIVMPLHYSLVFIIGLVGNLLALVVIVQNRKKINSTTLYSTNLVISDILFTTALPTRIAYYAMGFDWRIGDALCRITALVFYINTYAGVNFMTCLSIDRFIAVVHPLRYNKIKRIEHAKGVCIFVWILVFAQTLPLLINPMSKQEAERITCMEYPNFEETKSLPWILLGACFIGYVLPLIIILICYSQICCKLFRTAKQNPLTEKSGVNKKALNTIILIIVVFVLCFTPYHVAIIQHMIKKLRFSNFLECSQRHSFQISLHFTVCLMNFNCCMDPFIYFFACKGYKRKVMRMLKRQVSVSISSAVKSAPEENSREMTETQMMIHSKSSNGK

Each compound was assayed against G-protein coupled receptor 183 (Homo sapiens) (UniProt P32249) (assay: EBI2 receptor antagonists, beta-arrestin recruitment, primary screen, cell-based, luminescence, 7a,25-OHC stimulation, uHTS (AID 651636;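 further: enzyme fragment complementation signal reports receptor beta-arrestin coupling in cells; 0% = agonist plus DMSO wells and 100% = wells without agonist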)). Settings: 7a,25-OHC stimulated, at 5 µM, hits give high values.

SMILES	inhibition
COc1cc(C(=O)NCC2(N(C)C)CCCCC2)ccc1OC(F)F	inactive: -0.183%
CCOC(=O)N1CCC(Nc2cccc(C)c2)CC1	inactive: 2.3%
O=c1[nH]c2ccccc2n1C1CCN(C(c2cccc3ccccc23)c2nnnn2C2CCCC2)CC1 (stereo not drawn)	inactive: 25%
O=c1[nH]c2ccccc2n1C1CCN(C(c2ccccc2)c2nnnn2C2CCCCC2)CC1 (stereo not drawn)	inactive: 6.06%
CCOC(=O)N1CCC(Nc2ccc(F)cc2)CC1	inactive: 4.19%
COc1ccc(NC2CCN(CCc3ccccc3)CC2)c(OC)c1	inactive: -3.81%
O=C(NCC1(N2CCCCC2)CCCCC1)c1ccc(F)cc1	inactive: 1.71%
CCCCOc1ccc(C(=O)NCC2(N3CCOCC3)CCCCC2)cc1	inactive: 3.6%
O=P1(N(CCCl)CCCl)SCCCS1	inactive: 0.873%
CCCCn1nnnc1C(c1cc2ccccc2o1)N1CCC(n2c(=O)[nH]c3ccccc32)CC1 (stereo not drawn)	inactive: 13.7%
O=C1CCN(Cc2ccccc2)CC1	inactive: -10.2%
CC(C)(C)n1nnnc1C(c1ccccc1)N1CCC(n2c(=O)[nH]c3ccccc32)CC1 (stereo not drawn)	inactive: 11.5%
CCOc1ccc(C)cc1CN(CCCl)CCCl	inactive: 12.5%
COc1ccc(Cl)cc1C(=O)NCC1(N2CCOCC2)CCCCC1	inactive: -0.55%
O=c1[nH]c2ccccc2n1C1CCN(C(c2cc3ccccc3o2)c2nnnn2C2CCCCC2)CC1 (stereo not drawn)	inactive: 14.7%
O=C(OC1CN2CCC1CC2)C1c2ccccc2Oc2ccccc21 (stereo not drawn)	inactive: 9%
N#CC1(Nc2ccccc2)CCN(Cc2ccccc2)CC1	inactive: 2.56%
O=C(NCC1(N2CCCCC2)CCCCC1)c1ccc(Cl)s1	inactive: 1.24%
CCCCn1nnnc1C(c1ccc(OC)cc1)N1CCC(n2c(=O)[nH]c3ccccc32)CC1 (stereo not drawn)	inactive: 5.03%
CCOC(=O)N1CCC(Nc2ccc(OC)cc2)CC1	inactive: -6.3%
Cc1cc(C)cc(N(C(=O)c2ccccc2)C2CCN(C(=O)OC(C)(C)C)CC2)c1	inactive: -9.59%
O=c1[nH]c2ccccc2n1C1CCN(C(c2ccccc2OC(F)(F)F)c2nnnn2C2CCCCC2)CC1 (stereo not drawn)	inactive: 17.7%

SMILES	inhibition
O=C(NCC1(N2CCCCC2)CCCCC1)c1ccc(Cl)nc1	inactive: -7.85%
O=C(NCC1(N2CCOCC2)CCCCC1)c1cc2ccccc2o1	inactive: 9.24%
Cc1cccc(NC2(C#N)CCN(Cc3ccccc3)CC2)c1	inactive: 5.27%
CSc1ccccc1C(=O)NCC1(N2CCCCC2)CCCCC1	inactive: -4.22%
CCC(c1nnnn1C1CCCC1)N1CCC(n2c(=O)[nH]c3ccccc32)CC1 (stereo not drawn)	inactive: 6.55%
COc1ccc(C(=O)NCC2(N3CCCCC3)CCCCC2)c(OC)c1OC	inactive: -1.83%
CC(C)(C)OC(=O)N1CCC(N(C(=O)c2ccccc2)c2ccc(F)cc2)CC1	inactive: 1.79%
COc1ccc(C(=O)NCC2(N3CCCCC3)CCCCC2)cc1	inactive: -6.02%
CCCCn1nnnc1C(c1cccs1)N1CCC(n2c(=O)[nH]c3ccccc32)CC1 (stereo not drawn)	inactive: -0.635%
CCCCn1nnnc1C(CC)N1CCC(n2c(=O)[nH]c3ccccc32)CC1 (stereo not drawn)	inactive: 3.79%
O=C(NCC1(N2CCCCC2)CCCCC1)c1cccs1	inactive: -0.475%
O=C(NCC1(N2CCCCC2)CCCCC1)c1ccc(=O)[nH]c1	inactive: -4.75%
COc1ccc(C(c2nnnn2C2CCCC2)N2CCC(n3c(=O)[nH]c4ccccc43)CC2)cc1 (stereo not drawn)	inactive: 13.2%
CCCOc1ccc(C(=O)NCC2(N(C)C)CCCCC2)cc1OC	inactive: -6.07%
Cc1ccc(C(=O)NCC2(N(C)C)CCCCC2)o1	inactive: -3.93%
O=C(NCC1(N2CCCCC2)CCCCC1)c1cncc(Br)c1	inactive: -13.2%
CN1CCC(Nc2cccc(F)c2)CC1	inactive: -4.21%
CCC(c1nnnn1C(C)(C)C)N1CCC(n2c(=O)[nH]c3ccccc32)CC1 (stereo not drawn)	inactive: 2.13%
O=C(NCC1(N2CCOCC2)CCCCC1)c1cc(F)c(F)cc1Cl	inactive: -0.832%
COc1cc(OC)c(C(=O)NCC2(N(C)C)CCCCC2)cc1OC	inactive: -21.6%
CCCCn1nnnc1C(c1ccnc2ccccc12)N1CCC(n2c(=O)[nH]c3ccccc32)CC1 (stereo not drawn)	inactive: 7.19%
CC(C)c1ccc(NC2CCN(C(=O)OC(C)(C)C)CC2)cc1	inactive: 4.38%

SMILES	inhibition
CCCCn1nnnc1C(c1ccccc1OC(F)(F)F)N1CCC(n2c(=O)[nH]c3ccccc32)CC1 (stereo not drawn)	inactive: 28.7%
CN(C)c1cccc(C(=O)NCC2(N3CCCCC3)CCCCC2)c1	inactive: 0.688%
COc1ccc(CN(CCCl)CCCl)cc1Cl	inactive: -15.1%
O=C(NCC1(N2CCOCC2)CCCCC1)c1cc(=O)[nH]c2ccccc12	inactive: -1.99%
COc1cc(C(=O)NCC2(N3CCCCC3)CCCCC2)ccc1OC(F)F	inactive: -7.1%
CCCCn1nnnc1C(c1cccc2ccccc12)N1CCC(n2c(=O)[nH]c3ccccc32)CC1 (stereo not drawn)	inactive: 24.1%
COc1ccc(NC2CCN(C(=O)OC(C)(C)C)CC2)cc1	inactive: 6.6%
CC(C)c1ccc(C(=O)NCC2(N3CCOCC3)CCCCC2)cc1	inactive: -6.42%
CN1CCN(CCOC(=O)C(O)(c2ccccc2)c2ccccc2)CC1	inactive: -9.42%
O=C(NCC1(N2CCCCC2)CCCCC1)c1cccc(C(F)(F)F)c1	inactive: -7.25%
N#CC1(Nc2ccccc2)CCN(CCc2ccccc2)CC1	inactive: -9.49%
O=c1[nH]c2ccccc2n1C1CCN(C(c2ccccc2OC(F)(F)F)c2nnnn2C2CCCC2)CC1 (stereo not drawn)	inactive: 16.9%
CCN1CCC(Nc2ccc(Cl)cc2)CC1	inactive: 6.7%
CSc1ccc(C(=O)NCC2(N3CCOCC3)CCCCC2)cc1	inactive: -8.43%
O=C(NCC1(N2CCCCC2)CCCCC1)c1cccc([N+](=O)[O-])c1	inactive: 1.97%
O=C(NCC1(N2CCCCC2)CCCCC1)c1ccc(OC(F)F)cc1	inactive: -2.77%
CC(C)(C)n1nnnc1C(c1ccccc1OC(F)(F)F)N1CCC(n2c(=O)[nH]c3ccccc32)CC1 (stereo not drawn)	inactive: 8.84%
CC(C)(C)n1nnnc1C(c1cccc2ccccc12)N1CCC(n2c(=O)[nH]c3ccccc32)CC1 (stereo not drawn)	inactive: 27.4%
CN(C)C1(CNC(=O)c2cccc(C#N)c2)CCCCC1	inactive: 0.048%
CCCN1CCC(Nc2cc(OC)cc(OC)c2)CC1	inactive: 6.91%
O=c1[nH]c2ccccc2n1C1CCN(C(c2ccccc2)c2nnnn2C2CCCC2)CC1 (stereo not drawn)	inactive: 13.1%
Cc1cc(N(CCCl)CCCl)ccc1C=O	inactive: 26.7%

SMILES	inhibition
c1ccc(CN2CCC(Nc3ccccc3)CC2)cc1	inactive: -2.22%
N#Cc1ccc(C(=O)NCC2(N3CCCCC3)CCCCC2)cc1	inactive: -1.58%
CC(C)(C)OC(=O)N1CCC(N(C(=O)c2ccccc2)c2ccc(Cl)cc2)CC1	inactive: 8.12%
O=c1[nH]c2ccccc2n1C1CCN(C(c2cccs2)c2nnnn2C2CCCC2)CC1 (stereo not drawn)	inactive: 14.2%
O=C(OC1CN2CCC1CC2)C1c2ccccc2C=Cc2ccccc21 (stereo not drawn)	inactive: 0.252%
CCCCn1nnnc1C(c1cccc(OC)c1OC)N1CCC(n2c(=O)[nH]c3ccccc32)CC1 (stereo not drawn)	inactive: 2.41%
COc1cccc(C(c2nnnn2C(C)(C)C)N2CCC(n3c(=O)[nH]c4ccccc43)CC2)c1OC (stereo not drawn)	inactive: 5.16%
CCOC(=O)N1CCC(Nc2ccc(C)cc2)CC1	inactive: -5.96%
N/C(=N\O)c1c(N)no[n+]1[O-]	inactive: -9.76%
O=c1[nH]c2ccccc2n1C1CCN(C(c2cccs2)c2nnnn2C2CCCCC2)CC1 (stereo not drawn)	inactive: -3.49%
O=c1[nH]c2ccccc2n1C1CCN(C(c2ccnc3ccccc23)c2nnnn2C2CCCC2)CC1 (stereo not drawn)	inactive: 15.5%
COc1ccc(C(=O)NCC2(N3CCOCC3)CCCCC2)cc1OC	inactive: 6.77%
COc1cc(C(=O)NCC2(N3CCOCC3)CCCCC2)cc(OC)c1C	inactive: 7.8%
CCCCn1nnnc1C(c1ccccc1)N1CCC(n2c(=O)[nH]c3ccccc32)CC1 (stereo not drawn)	inactive: 13.5%
O=C(NCC1(N2CCOCC2)CCCCC1)c1cc(Br)ccc1Cl	inactive: 0.282%
CN1CCC(Nc2ccc(Cl)cc2)CC1	inactive: 3.26%
COc1cccc(C(=O)N(c2cc(C)cc(C)c2)C2CCN(C(=O)OC(C)(C)C)CC2)c1	inactive: 11.8%
COc1cccc(C(c2nnnn2C2CCCC2)N2CCC(n3c(=O)[nH]c4ccccc43)CC2)c1OC (stereo not drawn)	inactive: 20.9%
COc1cc(OC)cc(C(=O)NCC2(N3CCOCC3)CCCCC2)c1	inactive: -0.842%
CCC(CO)(C(=O)OC1CN2CCC1CC2)c1ccccc1 (stereo not drawn)	inactive: -6.33%
NN(c1ccccc1)C1CCN(CCc2ccccc2)CC1	inactive: -9.86%
O=C(O)C1(Nc2ccccc2)CCN(Cc2ccccc2)CC1	inactive: -0.959%

SMILES	inhibition
CC(C)(C)OC(=O)N1CCC(Nc2ccccc2)CC1	inactive: 1.45%
CCCOc1ccc(C(=O)NCC2(N(C)C)CCCCC2)cc1	inactive: -2.16%
O=c1[nH]c2ccccc2n1C1CCN(C(c2cc3ccccc3o2)c2nnnn2C2CCCC2)CC1 (stereo not drawn)	inactive: 20.1%
CN1CCC(Nc2ccc(F)c(Cl)c2)CC1	inactive: -5%
CCOc1ncccc1C(=O)NCC1(N2CCOCC2)CCCCC1	inactive: 1.06%
Cn1c(=O)[nH]cc(N(CCCl)CCCl)c1=O	inactive: -3.58%
CN(C)c1ccc(C(=O)NCC2(N3CCCCC3)CCCCC2)cc1	inactive: -4.52%
O=C(NCC1(N2CCCCC2)CCCCC1)c1ccco1	inactive: -6.42%
CC(C)(C)n1nnnc1C(c1ccnc2ccccc12)N1CCC(n2c(=O)[nH]c3ccccc32)CC1 (stereo not drawn)	inactive: 24.2%
COc1ccc(C(c2nnnn2C2CCCCC2)N2CCC(n3c(=O)[nH]c4ccccc43)CC2)cc1 (stereo not drawn)	inactive: 17.6%
CCN1CCC(Nc2cccc(F)c2)CC1	inactive: 5.81%
Cc1ccccc1NC1(C#N)CCN(Cc2ccccc2)CC1	inactive: -3.15%
Fc1ccccc1NC1CCN(Cc2ccccc2)CC1	inactive: -8.29%
Cc1ccc(C(=O)NCC2(N3CCCCC3)CCCCC2)o1	inactive: 7.26%
Cc1ccc(NC2(C#N)CCN(Cc3ccccc3)CC2)cc1	inactive: -1.82%
CCC(c1nnnn1C1CCCCC1)N1CCC(n2c(=O)[nH]c3ccccc32)CC1 (stereo not drawn)	inactive: 2.16%
CC(=O)N(c1ccccc1)C1CCNCC1	inactive: 5.28%
COc1cccc(C(c2nnnn2C2CCCCC2)N2CCC(n3c(=O)[nH]c4ccccc43)CC2)c1OC (stereo not drawn)	inactive: 6.62%
O=c1[nH]c2ccccc2n1C1CCN(C(c2ccnc3ccccc23)c2nnnn2C2CCCCC2)CC1 (stereo not drawn)	inactive: 11.6%
COc1cc(OC)cc(C(=O)NCC2(N3CCCCC3)CCCCC2)c1	inactive: 1.5%
